# Marks after values point to notes of the source that are not given here.
# System: Aedes aegypti
# Assay: K & D module mosquito anti-biting (repellent) bioassay
# Format: in vivo
# Protocol: Insects: Ae. aegypti(L.) (red eye Liverpool strain) and An. stephensi Liston used in the study were from colonies maintained at the Walter Reed Army Institute of Research, Silver Spring, Md. […] Adults were maintained in a photoperiod of 12:12 (L:D) h at 27° C. and 80% RH with cotton pads moistened with 10% aqueous sucrose solution. Mated females were 5-15 d old when they were used in bioassays. Ae. aegypti females had access only to water 24 h and neither food nor water for another 24 h before testing. An. stephensi females were provided with water alone 24 h before testing.
# Routinely, a six-celled K & D module containing five mosquitoes/cell was positioned over cloth treatments covering the six blood-membrane wells, and trap doors of the K&D modules were opened to expose the treatments to the sets of mosquitoes. After a 3 minute exposure, the number of mosquitoes biting through cloth treatments in each cell was recorded and mosquitoes were prodded back into the cells. […] Experiments were replicated 12, 18, 32, or 56 times. Thus, 60, 90, 160. or 280 mosquitoes were tested against each treatment depending on the experiment, and the proportion of mosquitoes not biting for each treatment was calculated. […]
smiles,measurement,setting,value
"CC1=CCC[C@@H]2[C@@](C)(CC(=O)O)[C@H](C)CC[C@@]12C [13,14,15,16-tetranorclerod-3-en-12-oic acid]",biting deterrent efficacy (in words),"Example 2, Table 7",equivalent to both callicarpenal and picaridin
same,Proportion Not Biting,"Table 7, Example 2, synthetic compounds, dose not given",0.60^b
